According to PMC6531791 (Molecular Metabolism, 2019):

Tested on: SN DA neurons / midbrain tissue
Experiment: Real-time PCR of midbrain tissue or DAT-ribotag immunoprecipitated mRNA
Assay type: in vivo, mouse
Conditions: DAT-cre-ribotag animals; 4h time point; n = 4–7 per group

Compound: CN1CC=C(c2ccccc2)CC1 [MPTP, 1-methyl-4-phenyl-1,2,5,6 tetrahydropyridine]
- expression of mitochondrial fission genes (Fis-1, Mff, Drp-1): increased expression of Drp-1
- expression of mitochondrial fusion genes (Mitofusin 1 and 2, Opa-1): markedly decrease in both mitofusins expression
